Test results: ChEMBL document CHEMBL1681717, “Design and synthesis of a novel, orally active, brain penetrant, tri-substituted thiophene based JNK inhibitor” (Bioorg Med Chem Lett, 2011)

Protein sequences, listed by entry. Tags and fused reporters are not part of them. Lines headed by an entry give the natural chain unless they say otherwise; changes in a name come on top.
UniProt P53779: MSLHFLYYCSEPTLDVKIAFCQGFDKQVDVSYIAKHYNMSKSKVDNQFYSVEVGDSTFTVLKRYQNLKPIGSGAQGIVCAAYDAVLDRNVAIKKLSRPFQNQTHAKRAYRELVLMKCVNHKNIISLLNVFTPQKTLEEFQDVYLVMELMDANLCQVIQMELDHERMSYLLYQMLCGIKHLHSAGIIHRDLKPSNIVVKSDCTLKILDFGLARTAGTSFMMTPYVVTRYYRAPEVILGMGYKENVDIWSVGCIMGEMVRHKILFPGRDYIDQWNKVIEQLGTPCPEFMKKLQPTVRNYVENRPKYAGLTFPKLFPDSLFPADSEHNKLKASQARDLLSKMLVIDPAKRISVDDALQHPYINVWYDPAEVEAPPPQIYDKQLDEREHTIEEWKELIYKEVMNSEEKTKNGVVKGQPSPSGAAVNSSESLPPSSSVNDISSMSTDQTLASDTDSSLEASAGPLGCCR

Target: Mitogen-activated protein kinase 10 (Homo sapiens, UniProt P53779)
Assay: Inhibition of recombinant JNK3 after 60 mins by TR-FRET assay

IC50: 0.025 µM
Structure (SMILES): Cc1csc(NC(=O)CN2C(=O)CCc3ccccc32)c1-c1ncn[nH]1
